Measurements taken from US9085561B2, “Cyclic urea- or lactam-substituted quinoxaline-type piperidines as ORL-1 modulators” (priority 2012, dated 2015).

What was measured:
human μ-opioid receptor [1] = target: T1, human μ-opioid receptor (Homo sapiens, UniProt P35372); assay: In vitro mu-opioid receptor [35S]GTPγS functional assay; format: biochemical; settings: read-out: GTPγS Opioid Receptor EC50 Mu [mean ± SEM]; procedure of Example 40
[2] = target: T2, human opioid receptor-like (ORL-1) (Homo sapiens, UniProt P41146); assay: In vitro ORL-1 receptor [35S]GTPγS functional assay; format: biochemical; settings: procedure of Example 38; for EC50: read-out: GTPγS ORL-1 EC50 [mean ± SEM]
kappa opioid receptor [3] = target: T3, kappa opioid receptor (Homo sapiens, UniProt P41145); assay: In vitro kappa-opioid receptor [35S]GTPγS functional assay; settings: read-out: GTPγS Opioid Receptor EC50 Kappa [mean ± SEM]; procedure of Example 42
[4] = target: T2, human opioid receptor-like (ORL-1); assay: In vitro ORL-1 receptor binding assay ([3H]-nociceptin displacement); settings: read-out: Ki [Average ± Std Deviation] ORL-1; binding to ORL-1 receptor, procedure of Example 37
kappa opioid receptor [5] = target: T3, kappa opioid receptor; assay: In vitro kappa-opioid receptor binding assay ([3H]-U69,593 displacement); settings: read-out: Ki [Average ± Std Deviation] Opioid Receptor Kappa; binding to kappa-opioid receptor, procedure of Example 41
[6] = target: recombinant delta opioid receptor expressed in CHO-K1 cells (Homo sapiens, UniProt P41143); assay: In vitro delta-opioid receptor binding assay ([3H]-Naltrindole displacement); settings: read-out: Ki [Average ± Std Deviation] Opioid Receptor Delta; binding to delta-opioid receptor, procedure of Example 43
human μ-opioid receptor [7] = target: T1, human μ-opioid receptor; assay: In vitro mu-opioid receptor binding assay ([3H]-diprenorphine displacement); settings: read-out: Ki [Average ± Std Deviation] Opioid Receptor Mu; binding to mu-opioid receptor, procedure of Example 39
human δ-opioid receptors = human δ-opioid receptors (Homo sapiens, UniProt P41143); assay: In vitro delta-opioid receptor [35S]GTPγS functional assay; settings: read-out: GTPγS Opioid Receptor EC50 Delta [mean ± SEM]; procedure of Example 44

C[C@@H]1C[C@@H]2C[C@H](C1)C[C@@H](N1[C@@H]3CCC[C@H]1C[C@@H](n1c(=O)c(-c4cc[nH]c(=O)c4)nc4ccccc41)C3)C2
EC50 (human μ-opioid receptor [1]): 2600 nM | GTPγS ORL-1 Emax [mean ± SEM] [2]: 62.3 ± 1.8% | EC50 [2]: 1.05 nM | EC50 (kappa opioid receptor [3]): 4640 nM | Ki [4]: 1.26 nM | Ki (kappa opioid receptor [5]): 1.4 nM | Ki [6]: 2510 nM | Ki (human μ-opioid receptor [7]): 9.32 nM

N[C@@H]1CCN(c2nc3ccccc3n([C@H]3C[C@H]4CC[C@@H](C3)N4C3CCCCCCC3)c2=O)C1 [CC101, reference compound]
EC50 (human μ-opioid receptor [1]): 4900 nM | GTPγS ORL-1 Emax [mean ± SEM] [2]: 105.7 ± 5.0% | EC50 [2]: 17 nM | EC50 (kappa opioid receptor [3]): 32800 nM | Ki [4]: 1.6 nM | Ki (kappa opioid receptor [5]): 14.9 nM | Ki [6]: 14000 nM | Ki (human μ-opioid receptor [7]): 590 nM

O=c1cnn(-c2nc3ccccc3n([C@H]3C[C@H]4CCC[C@@H](C3)N4[C@H]3C[C@@H]4CCC[C@@H](C4)C3)c2=O)c(=O)[nH]1 [Compound B9a]
EC50 (human μ-opioid receptor [1]): > 20000 nM | GTPγS ORL-1 Emax [mean ± SEM] [2]: 19 ± 2% | EC50 [2]: 5.43 nM | EC50 (kappa opioid receptor [3]): > 20000 nM | Ki [4]: 5.4 nM | Ki (kappa opioid receptor [5]): 115 nM | Ki [6]: 5820 nM | Ki (human μ-opioid receptor [7]): 297 nM

C[C@@H]1C[C@@H]2C[C@H](C1)C[C@@H](N1[C@@H]3CCC[C@H]1C[C@@H](n1c(=O)c(N4C(=O)NC(C)(C)C4=O)nc4ccccc41)C3)C2 [Compound B47a]
EC50 (human μ-opioid receptor [1]): > 20000 nM | GTPγS ORL-1 Emax [mean ± SEM] [2]: 36 ± 3% | EC50 [2]: 4.7 nM | EC50 (kappa opioid receptor [3]): > 20000 nM | Ki [4]: 2 nM | Ki (kappa opioid receptor [5]): 0.6 nM | Ki [6]: 3610 nM | Ki (human μ-opioid receptor [7]): 5.1 nM

O=c1cnn(-c2nc3ccccc3n([C@H]3C[C@H]4CC[C@@H](C3)N4[C@@H]3C[C@@H]4CCCC[C@@H](C4)C3)c2=O)c(=O)[nH]1 [Compound N9b, 2-(4-((1R,3R,5S)-8-((1R,6S,8s)-bicyclo[4.3.1]decan-8-yl)-8-azabicyclo[3.2.1]octan-3-yl)-3-oxo-3,4-dihydroquinoxalin-2-yl)-1,2,4-triazine-3,5(2H,4H)-dione]
EC50 (human μ-opioid receptor [1]): > 20000 nM | GTPγS ORL-1 Emax [mean ± SEM] [2]: 27.7 ± 1.2% | EC50 [2]: 10.5 nM | EC50 (kappa opioid receptor [3]): > 20000 nM | Ki [4]: 4.2 nM | Ki (kappa opioid receptor [5]): 143 nM | Ki [6]: 5520 nM | Ki (human μ-opioid receptor [7]): 152 nM

C[C@@H]1C[C@@H]2C[C@H](C1)C[C@@H](N1[C@@H]3CCC[C@H]1C[C@@H](n1c(=O)c(-c4c[nH]c(=O)cn4)nc4ccccc41)C3)C2 [Compound U052, 1-((1R,1′R,3r,3′R,5S,5′S,7S)-7-methyl-[3,9′-bi(9′-azabicyclo[3.3.1]nonan)]-3′-yl)-3-(5-oxo-4,5-dihydropyrazin-2-yl)quinoxalin-2(1H)-one]
EC50 (human μ-opioid receptor [1]): > 20000 nM | GTPγS ORL-1 Emax [mean ± SEM] [2]: 28.3 ± 3.7% | EC50 [2]: 2.54 nM | EC50 (kappa opioid receptor [3]): > 20000 nM | Ki [4]: 1.07 nM | EC50 (human δ-opioid receptors): > 20000 nM | Ki (kappa opioid receptor [5]): 58.3 nM | Ki [6]: 669 nM | Ki (human μ-opioid receptor [7]): 14.5 nM

C[C@@H]1C[C@@H]2C[C@H](C1)C[C@@H](N1[C@@H]3CCC[C@H]1C[C@@H](n1c(=O)c(-c4ccc(=O)[nH]c4)nc4ccccc41)C3)C2 [Compound U060, 1-((1R,1′R,3r,3′R,5S,5′S,7S)-7-methyl-[3,9′-bi(9′-azabicyclo[3.3.1]nonan)]-3′-yl)-3-(6-oxo-1,6-dihydropyridin-3-yl)quinoxalin-2(1H)-one]
EC50 (human μ-opioid receptor [1]): > 20000 nM | GTPγS ORL-1 Emax [mean ± SEM] [2]: 65.3 ± 3.6% | EC50 [2]: 0.48 nM | EC50 (kappa opioid receptor [3]): > 20000 nM | Ki [4]: 0.5 nM | Ki (kappa opioid receptor [5]): 3.47 nM | Ki [6]: 4650 nM | Ki (human μ-opioid receptor [7]): 6.7 nM

C[C@@H]1C[C@@H]2C[C@H](C1)C[C@@H](N1[C@@H]3CCC[C@H]1C[C@@H](n1c(=O)c(-c4c[nH]c(=O)c(C(N)=O)c4)nc4ccccc41)C3)C2 [Compound U063, 5-(4-((1R,1′R,3r,3′R,5S,5′S,7S)-7-methyl-[3,9′-bi(9′-azabicyclo[3.3.1]nonan)]-3′-yl)-3-oxo-3,4-dihydroquinoxalin-2-yl)-2-oxo-1,2-dihydropyridine-3-carboxamide]
EC50 (human μ-opioid receptor [1]): 3630 nM | GTPγS ORL-1 Emax [mean ± SEM] [2]: 50.7 ± 6.2% | EC50 [2]: 3.12 nM | EC50 (kappa opioid receptor [3]): 6980 nM | Ki [4]: 1.03 nM | Ki (kappa opioid receptor [5]): 2.9 nM | Ki [6]: 10500 nM | Ki (human μ-opioid receptor [7]): 16.1 nM

C[C@@H]1C[C@@H]2C[C@H](C1)C[C@@H](N1[C@@H]3CCC[C@H]1C[C@@H](n1c(=O)c(-c4c[nH]c(=O)c(C(=O)O)c4)nc4ccccc41)C3)C2 [Compound U064, 5-(4-((1R,1′R,3r,3′R,5S,5′S,7S)-7-methyl-[3,9′-bi(9′-azabicyclo[3.3.1]nonan)]-3′-yl)-3-oxo-3,4-dihydroquinoxalin-2-yl)-2-oxo-1,2-dihydropyridine-3-carboxylic acid]
EC50 (human μ-opioid receptor [1]): > 20000 nM | GTPγS ORL-1 Emax [mean ± SEM] [2]: 38.7 ± 4.3% | EC50 [2]: 1.97 nM | EC50 (kappa opioid receptor [3]): > 20000 nM | Ki [4]: 1.12 nM | Ki (kappa opioid receptor [5]): 95.8 nM | Ki [6]: 15900 nM | Ki (human μ-opioid receptor [7]): 7.35 nM

Nc1ccn(-c2nc3ccccc3n([C@H]3C[C@H]4CC[C@@H](C3)N4[C@@H]3C[C@@H]4CCCC[C@@H](C4)C3)c2=O)c(=O)n1 [Compound U066, 3-(4-amino-2-oxopyrimidin-1(2H)-yl)-1-((1R,3R,5S)-8-((1R,6S,8s)-bicyclo[4.3.1]decan-8-yl)-8-azabicyclo[3.2.1]octan-3-yl)quinoxalin-2(1H)-one]
EC50 (human μ-opioid receptor [1]): 95.2 nM | GTPγS ORL-1 Emax [mean ± SEM] [2]: 39.7 ± 2.2% | EC50 [2]: 5.47 nM | EC50 (kappa opioid receptor [3]): > 20000 nM | Ki [4]: 0.63 nM | Ki (kappa opioid receptor [5]): 9.7 nM | Ki [6]: > 20000 nM | Ki (human μ-opioid receptor [7]): 51 nM

Nc1nc(=O)n(-c2nc3ccccc3n([C@H]3C[C@H]4CCC[C@@H](C3)N4[C@@H]3C[C@@H]4CCCC[C@@H](C4)C3)c2=O)cc1F [Compound U067]
EC50 (human μ-opioid receptor [1]): > 20000 nM | GTPγS ORL-1 Emax [mean ± SEM] [2]: 28.5 ± 0.9% | EC50 [2]: 2.45 nM | EC50 (kappa opioid receptor [3]): > 20000 nM | Ki [4]: 0.29 nM | Ki (kappa opioid receptor [5]): 1.12 nM | Ki [6]: 17600 nM | Ki (human μ-opioid receptor [7]): 14.4 nM

O=C(O)Cn1c(-c2nc3ccccc3n([C@H]3C[C@H]4CC[C@@H](C3)N4[C@@H]3C[C@@H]4CCCC[C@@H](C4)C3)c2=O)cccc1=O [DD1b(iii), 2-(6-(4-((1R,3R,5S)-8-((1R,6S,8s)-bicyclo[4.3.1]decan-8-yl)-8-azabicyclo[3.2.1]octan-3-yl)-3-oxo-3,4-dihydroquinoxalin-2-yl)-2-oxopyridin-1(2H)-yl)acetic acid]
EC50 (human μ-opioid receptor [1]): 87 nM | GTPγS ORL-1 Emax [mean ± SEM] [2]: 31.7 ± 2.7% | EC50 [2]: 94.7 nM | EC50 (kappa opioid receptor [3]): > 20000 nM | Ki [4]: 3.54 nM | Ki (kappa opioid receptor [5]): 143 nM | Ki [6]: 3100 nM | Ki (human μ-opioid receptor [7]): 243 nM

O=C(O)Cn1c(-c2nc3ccccc3n([C@H]3C[C@H]4CCC[C@@H](C3)N4[C@@H]3C[C@@H]4CCCC[C@@H](C4)C3)c2=O)cccc1=O [EE1b(iii), 2-(6-(4-((1R,3R,5S)-9-((1R,6S,8s)-bicyclo[4.3.1]decan-8-yl)-9-azabicyclo[3.3.1]nonan-3-yl)-3-oxo-3,4-dihydroquinoxalin-2-yl)-2-oxopyridin-1(2H)-yl)acetic acid]
EC50 (human μ-opioid receptor [1]): > 20000 nM | GTPγS ORL-1 Emax [mean ± SEM] [2]: 31.3 ± 2.3% | EC50 [2]: 6.2 nM | EC50 (kappa opioid receptor [3]): > 20000 nM | Ki [4]: 0.8 nM | EC50 (human δ-opioid receptors): 863 nM | Ki (kappa opioid receptor [5]): 23.7 nM | Ki [6]: 877 nM | Ki (human μ-opioid receptor [7]): 87 nM

O=c1[nH]nc(-c2nc3ccccc3n([C@H]3C[C@H]4CCC[C@@H](C3)N4[C@@H]3C[C@@H]4CCCC[C@@H](C4)C3)c2=O)[nH]1 [EE6b(i)(i), 1-((1R,3R,5S)-9-((1R,6S,8s)-bicyclo[4.3.1]decan-8-yl)-9-azabicyclo[3.3.1]nonan-3-yl)-3-(5-oxo-4,5-dihydro-1H-1,2,4-triazol-3-yl)quinoxalin-2(1H)-one]
EC50 (human μ-opioid receptor [1]): 12.5 nM | GTPγS ORL-1 Emax [mean ± SEM] [2]: 33 ± 1% | EC50 [2]: 1.03 nM | EC50 (kappa opioid receptor [3]): > 20000 nM | Ki [4]: 0.15 nM | Ki (kappa opioid receptor [5]): 22.6 nM | Ki [6]: 9810 nM | Ki (human μ-opioid receptor [7]): 28.8 nM

O=C(O)Cn1c(-c2nc3ccccc3n([C@H]3C[C@H]4CC[C@@H](C3)N4[C@H]3C[C@@H]4CCC[C@@H](C4)C3)c2=O)cccc1=O [Q1a(iii), 2-(6-(4-((1R,3R,5S)-8-((1R,3r,5S)-bicyclo[3.3.1]nonan-3-yl)-8-azabicyclo[3.2.1]octan-3-yl)-3-oxo-3,4-dihydroquinoxalin-2-yl)-2-oxopyridin-1(2H)-yl)acetic acid]
EC50 (human μ-opioid receptor [1]): > 20000 nM | GTPγS ORL-1 Emax [mean ± SEM] [2]: 35.0 ± 1.2% | EC50 [2]: 87 nM | EC50 (kappa opioid receptor [3]): > 20000 nM | Ki [4]: 12.8 nM | Ki (kappa opioid receptor [5]): 138 nM | Ki [6]: 7040 nM | Ki (human μ-opioid receptor [7]): 293 nM

O=c1cncc(-c2nc3ccccc3n([C@H]3C[C@H]4CCC[C@@H](C3)N4[C@H]3C[C@@H]4CCC[C@@H](C4)C3)c2=O)[nH]1 [R3a(i), 1-((1R,1′R,3r,3′R,5S,5′S)-[3,9′-bi(9′-azabicyclo[3.3.1]nonan)]-3′-yl)-3-(6-oxo-1,6-dihydropyrazin-2-yl)quinoxalin-2(1H)-one]
EC50 (human μ-opioid receptor [1]): > 20000 nM | GTPγS ORL-1 Emax [mean ± SEM] [2]: 36.8 ± 2.5% | EC50 [2]: 7.5 nM | EC50 (kappa opioid receptor [3]): > 20000 nM | Ki [4]: 3.05 nM | Ki (kappa opioid receptor [5]): 93.4 nM | Ki [6]: > 20000 nM | Ki (human μ-opioid receptor [7]): 151 nM
